These are literature values, as cited in patent publication US20030180387A1, “Method for increasing the antioxidative potential of selenium-containing aqueous solutions” (priority 2000, published 2003).

For the data set, the system named is animals. The following applies: growth inhibition, loss of hair, softening of horns and hoofs, loss of feathers.

In the case of `[Se]` [selenium], the “selenium content of animal nourishment at which toxication occurs” value is 5 to 10 μg selenium/g.
